## Apparent affinities of Ab-95 variants for a coronavirus HR2 peptide

Antigen: PDVDLGDISGINAS, a 14-residue peptide of the SARS-CoV-2 spike HR2 region.

Each scFv is VH, a (GGGGS)3 linker, VL, as in the parent Ab-95, and differs from it in the CDRs of the light chain only.
VH: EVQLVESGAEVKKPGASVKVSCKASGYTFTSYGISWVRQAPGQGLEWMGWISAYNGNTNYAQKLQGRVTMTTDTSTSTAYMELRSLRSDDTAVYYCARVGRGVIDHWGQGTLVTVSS
VL: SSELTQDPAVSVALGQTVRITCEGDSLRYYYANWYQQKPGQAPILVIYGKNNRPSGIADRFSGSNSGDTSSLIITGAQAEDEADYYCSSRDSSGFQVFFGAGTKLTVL

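Variants in AAYL52 differ from the parent at up to three CDR positions; double and triple changes were sampled at random. The assay is AlphaSeq: two haploid yeast populations carry antibody and antigen on their surface. After mating in shaken culture at 30 °C for 16 h, diploids were selected and their barcode pairs sequenced. Scores were corrected for input abundance and mapped to Kd with protein pairs of known affinity run in the same pool. The assay was run in three technical replicates.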

Variants are written as CDR1, CDR2 and CDR3 of the light chain (limits as in the source). Parent: EGDSLRYYYAN, GKNNRPS, SSRDSSGFQVF. Affinities are written as log10 Kd with Kd in nM; a lower number is a better binder. A mean of the replicates is given; it leaves out those without a signal. A pair that was not seen in that replicate is written "n.d."; this usually means weak binding, but a binder can also be missed. Parent in this assay: reference entry 2.31, copy in this library 2.25.

| # | CDR-L1 | CDR-L2 | CDR-L3 | log10 Kd (nM) by replicate | mean log10 Kd (nM) | control signals |
|---|---|---|---|---|---|---|
| 1 | EGDSLRYYYAN | GPPNRPS | SSRDSSGFDVF | 3.95 n.d. n.d. | 3.95 | 1 of 9 (4.21) |
| 2 | EGDSLRYYYAG | GKNNRPS | SSVDSSGFQVF | 3.11 3.68 3.99 | 3.59 | 0 of 9 |
| 3 | CGDSLRYYYAN | GKNNRPS | SRRDSSGFQVP | n.d. n.d. n.d. | n.d. | 0 of 9 |
| 4 | EGDSLRYYYPN | IKNNRPS | SSRWSSGFQVF | 3.56 n.d. 3.95 | 3.76 | 2 of 9 (2.91) |
| 5 | EGDSMRYYYVN | GKNNRPS | SSRDSSGEQVF | 3.31 3.51 2.67 | 3.17 | 3 of 9 (4.02) |
| 6 | EGDSLRYYGFN | GKNNRPS | SSEDSSGFQVF | 4.64 n.d. 3.74 | 4.19 | 1 of 9 (3.02) |
| 7 | EGDSLRYYYFN | GDNNRPS | SSRDSSGFYVF | 2.72 2.82 2.53 | 2.69 | 4 of 9 (4.13) |
| 8 | EGDSLNYYYAE | GKNNRPS | SSRDSSGFQVT | 3.91 n.d. n.d. | 3.91 | 4 of 9 (3.96) |
| 9 | QGDSLRYDYAN | GKNNRPS | SSRDSSQFQVF | 2.23 2.01 1.80 | 2.01 | 3 of 9 (3.59) |
| 10 | EGDSLRYYGAN | GDNNRPS | SSRDSSGFHVF | 1.32 1.47 0.79 | 1.19 | 3 of 9 (4.14) |
| 11 | EGDSLRYYYAN | GKNNRHS | ASWDSSGFQVF | 4.43 n.d. n.d. | 4.43 | 4 of 9 (4.05) |
| 12 | EGWSLRYYDAN | GKSNRPS | SSRDSSGFQVF | 1.74 1.67 1.39 | 1.60 | 3 of 9 (3.98) |
| 13 | EGDSCRYYYAN | GKNNRPS | SIRDKSGFQVF | n.d. 3.31 n.d. | 3.31 | 1 of 9 (4.65) |
| 14 | EGDSPRYYYAN | GKNNHPS | SSRDYSGFQVF | n.d. n.d. n.d. | n.d. | 1 of 9 (5.32) |
| 15 | EGDSLRYYYVN | GKNDRPI | SSRDSSGFQVF | 2.80 2.94 2.40 | 2.72 | 6 of 9 (4.35) |
| 16 | EGWSLRYYYAN | GKNNRAS | SSRDTSGFQVF | 2.90 2.32 2.80 | 2.67 | 3 of 9 (3.83) |
| 17 | EGDTLRYYWAN | GINNRPS | SSRDSSGFQVF | n.d. 3.95 3.46 | 3.70 | 4 of 9 (4.12) |
| 18 | EGDSLEYYYAN | GKNNRPS | SSRDSTGFQVF | 2.41 2.33 2.53 | 2.42 | 5 of 9 (4.29) |
| 19 | EGDSLRYYYEN | GKNNRPC | SSRDSSGFQVF | 3.40 n.d. n.d. | 3.40 | 3 of 9 (3.57) |
| 20 | EGDSLRYYYAN | GKFNRPS | SSRDHSYFQVF | n.d. 4.14 3.30 | 3.72 | 4 of 9 (3.91) |
| 21 | EGDSLRYYYAN | GKENRMS | SSRDSSGFMVF | 3.19 3.25 3.73 | 3.39 | 2 of 9 (4.28) |
| 22 | EGDCLRYYYAN | GKNNRPS | SSRDLSGFQVI | n.d. 4.78 n.d. | 4.78 | 2 of 9 (3.68) |
| 23 | EGDSLRYYQAN | GKNNRPS | RSRDSKGFQVF | 1.24 0.95 0.68 | 0.96 | 2 of 9 (3.93) |
| 24 | SGDSLRYYRAN | GKNNRPC | SSRDSSGFQVF | 2.67 2.56 2.89 | 2.70 | 0 of 9 |
| 25 | EGDQLRYYHAN | GKMNRPS | SSRDSSGFQVF | 4.31 4.63 n.d. | 4.47 | 3 of 9 (4.38) |
| 26 | EGDSLRYYYAN | GKNNRPS | PSEDSDGFQVF | 3.88 3.75 3.48 | 3.70 | 6 of 9 (4.21) |
| 27 | GGDSLRYYYRN | GKNNRPG | SSRDSSGFQVF | 3.93 3.96 3.65 | 3.85 | 5 of 9 (3.79) |
| 28 | EGCSLRYYYAN | GKNNRPS | SSEDSSGFQVD | n.d. n.d. n.d. | n.d. | 0 of 9 |
| 29 | EGDSLGYYYAN | GKNNRPS | LSRDSSGFQVQ | 2.60 3.89 n.d. | 3.25 | 0 of 9 |
| 30 | EPDSLRYYYSN | GKNNRPS | SSRDSSGFQWF | 4.52 3.58 3.66 | 3.92 | 5 of 9 (3.41) |
| 31 | PGDSLRYWYAN | GKNNRPS | SSRDSSKFQVF | 4.70 5.78 n.d. | 5.24 | 4 of 9 (3.89) |
| 32 | EGDSLRYYYAN | GKLNRPS | SSRDSLGFCVF | 4.55 3.32 4.22 | 4.03 | 3 of 9 (4.65) |
| 33 | VGDSLRYYYAN | GKNNRPS | SSRLSSGFCVF | 3.14 3.51 n.d. | 3.32 | 2 of 9 (4.58) |
| 34 | YGTSLRYYYAN | GKNNRWS | SSRDSSGFQVF | 3.96 3.40 n.d. | 3.68 | 0 of 9 |
| 35 | ELDSLVYYYAN | GKNNRPS | SSRDSSGFQGF | 4.18 4.24 4.30 | 4.24 | 1 of 9 (3.71) |
| 36 | EGDSLRYSYKN | GKNNRPS | SSRDSSGFQIF | 3.03 3.21 2.73 | 2.99 | 1 of 9 (2.78) |
| 37 | EGRSLRYYYAN | GKNWRPS | SSRDSSGFAVF | 3.35 5.63 3.86 | 4.28 | 2 of 9 (3.05) |
| 38 | EGDSLRYYYAN | GKSNRPS | SSRDSSNFQVL | 4.01 5.63 n.d. | 4.82 | 0 of 9 |
| 39 | EGDSHRYYYAN | GKINYPS | SSRDSSGFQVF | n.d. n.d. n.d. | n.d. | 5 of 9 (4.32) |
| 40 | EGESLRYYYAN | GKNNRPS | SSRDSSGFLDF | 4.23 n.d. n.d. | 4.23 | 1 of 9 (2.69) |
| 41 | SGDSLRYYYAN | AKNNRPN | SSRDSSGFQVF | 3.70 2.80 2.52 | 3.01 | 1 of 9 (5.29) |
| 42 | GGDSLIYYYAN | GLNNRPS | SSRDSSGFQVF | 2.66 2.76 2.53 | 2.65 | 3 of 9 (4.07) |
| 43 | EGASLRYYYAN | GKNNRPS | SSRDSSHAQVF | 2.12 2.37 1.87 | 2.12 | 3 of 9 (3.37) |
| 44 | EGDSLRYYYTN | GKNNRPS | SSRDISGFQVF | 1.87 2.64 1.71 | 2.07 | 1 of 9 (2.97) |
| 45 | EGDSCRYYYAN | GKNNKPS | SHRDSSGFQVF | 1.91 2.18 1.95 | 2.01 | 3 of 9 (3.65) |
| 46 | HGDSLRYVYAN | GKNNGPS | SSRDSSGFQVF | 2.91 3.81 n.d. | 3.36 | 1 of 9 (3.21) |
| 47 | EGDSLYYYWAN | GKNNRPS | SSRNSSGFQVF | n.d. 3.75 4.43 | 4.09 | 2 of 9 (4.66) |
| 48 | EGDSLRYYYAN | GKNHRPS | SLLDSSGFQVF | 4.00 2.74 3.88 | 3.54 | 2 of 9 (4.37) |

Repeated from above, the 8 best binders with a signal in all replicates:

| CDR-L1 | CDR-L2 | CDR-L3 | log10 Kd (nM) by replicate | mean log10 Kd (nM) | control signals |
|---|---|---|---|---|---|
| EGDSLRYYQAN | GKNNRPS | RSRDSKGFQVF | 1.24 0.95 0.68 | 0.96 | 2 of 9 (3.93) |
| EGDSLRYYGAN | GDNNRPS | SSRDSSGFHVF | 1.32 1.47 0.79 | 1.19 | 3 of 9 (4.14) |
| EGWSLRYYDAN | GKSNRPS | SSRDSSGFQVF | 1.74 1.67 1.39 | 1.60 | 3 of 9 (3.98) |
| EGDSCRYYYAN | GKNNKPS | SHRDSSGFQVF | 1.91 2.18 1.95 | 2.01 | 3 of 9 (3.65) |
| QGDSLRYDYAN | GKNNRPS | SSRDSSQFQVF | 2.23 2.01 1.80 | 2.01 | 3 of 9 (3.59) |
| EGDSLRYYYTN | GKNNRPS | SSRDISGFQVF | 1.87 2.64 1.71 | 2.07 | 1 of 9 (2.97) |
| EGASLRYYYAN | GKNNRPS | SSRDSSHAQVF | 2.12 2.37 1.87 | 2.12 | 3 of 9 (3.37) |
| EGDSLEYYYAN | GKNNRPS | SSRDSTGFQVF | 2.41 2.33 2.53 | 2.42 | 5 of 9 (4.29) |

Nonspecific signal, from three strains lacking the peptide, appeared in 28% of pairings of library AAYL52, centred on 3.91 (5% of these signals below 2.90); values are not corrected for it. For each scFv, signals with the empty controls are counted beside the result, with their mean in brackets.

Source: Engelhart et al. 2022 (doi:10.1038/s41597-022-01779-4), MIT Lincoln Laboratory and A-Alpha Bio; data file from the FLAb repository.